Source: publication PMC7084345, “Differential Inhibitory Actions of Multitargeted Tyrosine Kinase Inhibitors on Different Ionic Current Types in Cardiomyocytes” (International Journal of Molecular Sciences, 2020)

Molecular target: T1, KV7.1 (KCNQ1) channel, IK(S) (Rattus norvegicus, UniProt Q9Z0N7)
T1 construct: native IK(S) in H9c2 cells
T1 sequence (Q9Z0N7 1-669): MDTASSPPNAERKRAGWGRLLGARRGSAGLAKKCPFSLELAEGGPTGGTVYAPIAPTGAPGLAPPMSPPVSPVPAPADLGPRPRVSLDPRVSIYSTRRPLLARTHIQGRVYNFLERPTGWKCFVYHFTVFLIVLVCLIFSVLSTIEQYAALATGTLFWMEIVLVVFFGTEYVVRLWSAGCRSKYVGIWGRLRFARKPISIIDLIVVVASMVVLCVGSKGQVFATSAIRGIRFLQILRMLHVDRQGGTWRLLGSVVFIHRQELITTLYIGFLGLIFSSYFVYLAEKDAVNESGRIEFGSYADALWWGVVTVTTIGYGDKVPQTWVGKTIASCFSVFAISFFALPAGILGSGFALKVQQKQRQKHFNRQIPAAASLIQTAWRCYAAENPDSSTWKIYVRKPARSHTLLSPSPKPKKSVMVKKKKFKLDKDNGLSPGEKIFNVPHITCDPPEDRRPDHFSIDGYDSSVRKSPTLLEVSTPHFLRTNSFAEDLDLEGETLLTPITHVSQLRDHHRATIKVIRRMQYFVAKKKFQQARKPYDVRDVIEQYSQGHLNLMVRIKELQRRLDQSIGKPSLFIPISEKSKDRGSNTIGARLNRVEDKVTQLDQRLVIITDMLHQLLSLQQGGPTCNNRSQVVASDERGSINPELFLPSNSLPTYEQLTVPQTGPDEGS
Test: whole-cell patch clamp of native IK(S) in H9c2 cells
Assay type: cell-based

pIC50: 5.77
SMILES: CNC(=O)c1cc(Oc2ccc(NC(=O)Nc3ccc(Cl)c(C(F)(F)F)c3)cc2)ccn1 [SOR, sorafenib]

pIC50: −log10 of the molar value.
